Results taken from ChEMBL document CHEMBL5512640, “Discovery of novel itaconimide-based derivatives as potent HDAC inhibitors for the efficient treatment of prostate cancer” (Eur J Med Chem, 2024).

Molecular target: T1, Histone deacetylase 8 (Homo sapiens, UniProt Q9BY41)
T1 sequence (Q9BY41 whole entry): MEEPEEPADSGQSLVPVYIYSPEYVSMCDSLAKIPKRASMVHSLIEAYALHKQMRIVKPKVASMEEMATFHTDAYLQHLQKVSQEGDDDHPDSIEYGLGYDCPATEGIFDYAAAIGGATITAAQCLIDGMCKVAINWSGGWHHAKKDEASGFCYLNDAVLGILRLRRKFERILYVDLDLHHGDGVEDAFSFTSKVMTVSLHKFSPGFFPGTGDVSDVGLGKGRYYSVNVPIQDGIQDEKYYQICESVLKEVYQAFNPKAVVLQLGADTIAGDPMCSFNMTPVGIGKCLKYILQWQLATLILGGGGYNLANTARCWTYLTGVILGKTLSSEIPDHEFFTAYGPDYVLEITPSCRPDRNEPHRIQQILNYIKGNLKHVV
Experiment: Inhibition of human HDAC8 incubated for 10 mins followed by fluorogenic substrate addition by fluorescence based analysis

## O=C(CCCCCCC(=O)Nc1ccccc1)NO [VORINOSTAT]
  IC50: 461 nM
